# Results as given in patent US6541463B1, “Inhibitors of type 5 and type 3 17β-hydroxysteroid dehydrogenase and methods for their use” (Endorecherche, Inc., priority 1998, dated 2003).
# Amino acid sequences for entries named in this document (tags omitted).
# UniProt P42330, whole entry: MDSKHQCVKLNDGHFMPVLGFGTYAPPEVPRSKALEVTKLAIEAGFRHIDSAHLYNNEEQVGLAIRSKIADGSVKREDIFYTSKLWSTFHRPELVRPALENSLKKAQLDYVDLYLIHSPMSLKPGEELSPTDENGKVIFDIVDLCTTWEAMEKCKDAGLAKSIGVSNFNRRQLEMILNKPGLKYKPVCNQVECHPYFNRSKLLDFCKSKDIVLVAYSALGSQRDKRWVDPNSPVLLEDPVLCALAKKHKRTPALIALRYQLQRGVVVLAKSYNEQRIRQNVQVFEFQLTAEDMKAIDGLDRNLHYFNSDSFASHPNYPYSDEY
# UniProt P14061, whole entry: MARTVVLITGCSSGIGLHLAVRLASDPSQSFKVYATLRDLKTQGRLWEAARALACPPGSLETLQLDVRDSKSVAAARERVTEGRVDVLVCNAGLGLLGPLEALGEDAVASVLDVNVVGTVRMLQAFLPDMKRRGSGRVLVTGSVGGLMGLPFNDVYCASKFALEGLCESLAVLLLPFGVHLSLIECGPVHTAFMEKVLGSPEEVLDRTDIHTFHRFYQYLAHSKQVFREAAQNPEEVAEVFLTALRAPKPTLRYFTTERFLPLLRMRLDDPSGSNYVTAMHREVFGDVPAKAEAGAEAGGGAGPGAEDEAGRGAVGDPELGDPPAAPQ
# UniProt P37059, whole entry: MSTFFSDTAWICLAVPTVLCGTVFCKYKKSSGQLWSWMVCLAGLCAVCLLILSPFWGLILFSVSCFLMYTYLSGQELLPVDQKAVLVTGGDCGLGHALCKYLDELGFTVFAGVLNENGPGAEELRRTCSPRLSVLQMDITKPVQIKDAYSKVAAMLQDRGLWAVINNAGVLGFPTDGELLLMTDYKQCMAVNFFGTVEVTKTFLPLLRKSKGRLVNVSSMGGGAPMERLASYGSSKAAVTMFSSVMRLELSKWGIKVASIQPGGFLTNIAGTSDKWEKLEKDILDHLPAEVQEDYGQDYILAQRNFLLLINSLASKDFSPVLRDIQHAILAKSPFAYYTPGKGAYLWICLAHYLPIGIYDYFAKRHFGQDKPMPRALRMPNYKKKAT
# Read-outs that look alike come from different tables or passages of the source.
# Key:
# [1] = biological target: human type 5 17β-hydroxysteroid dehydrogenase (Homo sapiens, UniProt P42330); assay: Inhibition of human type 5 17β-HSD activity in transfected 293 cells; assay type: cell-based
# [2] = system: Shionogi mouse mammary carcinoma cells; assay: Antiandrogenic activity: inhibition of DHT-induced proliferation of Shionogi cells; assay type: cell-based
# [3] = biological target: human type 1 17β-hydroxysteroid dehydrogenase (Homo sapiens, UniProt P14061); assay: Enzymatic assay for type 1 17β-HSD; conditions: value in square brackets
# [4] = system: Shionogi mouse mammary carcinoma cells; assay: Androgenic activity: stimulation of proliferation of Shionogi cells
# ZR-75-1 cells [5] = assay: Antiestrogenic activity: inhibition of E2-induced proliferation of ZR-75-1 cells; set-up: ZR-75-1 Activity, E2 / ZR-75-1 Activity E2 E^−6: unit not given here; conditions: for ZR-75-1 Activity, E2: E2, E^−8; for ZR-75-1 Activity E2 3E^−8: with E2, 3E^−8; for ZR-75-1 Activity E2 E^−6: with E2, E^−6
# [6] = In vivo assay of oral bioavailability (plasma AUC 0-7 h by LCMS/MS); conditions: AUC 0-7h
# ZR-75-1 cells [7] = assay: Estrogenic activity: stimulation of proliferation of ZR-75-1 cells; assay type: cell-based, human
# [8] = biological target: human type 2 17β-hydroxysteroid dehydrogenase (Homo sapiens, UniProt P37059); assay: Enzymatic assay for type 2 17β-HSD; conditions: at 3.10^-8M
# [9] = read-out: Inhibition Type V 17B-HSD IC50
# [10] = read-out: Antiandrogenic Activity Shionogi DHT [IC50 (nM)], with DHT, value in square brackets on second line
# [11] = read-out: Inhibition Type V 17β-HSD IC50
# [12] = read-out: Antiandrogenic Activity Shionogi, DHT [IC50], DHT
Compound,"IC50 [1, 9] [nM]","Antiandrogenic Activity Shionogi DHT E^−6 ([2]; with DHT, E^−6)","Antiandrogenic Activity Shionogi DHT E^−7 ([2]; with DHT, E^−7)",Inhibition Type 1 17B-HSD Activity [% Inh. at 3 · 10^−6 M] [3],Androgenic Activity Shionogi Basal E^−6 ([4]; E^−6),Androgenic Activity Shionogi Basal E^−7 ([4]; E^−7),"IC50 [2, 10] [nM]",also measured
CC1=CC2C(CC[C@@]3(C)C2CCC(=O)[C@@]3(C)OC(=O)CCCCF)[C@@]2(C)CCC(=O)C=C12 (some centres unmarked),6.5,−109,−98,[48] %,−32,−30,,
CC1=CC2C(CC[C@@]3(C)C2CCC(=O)[C@@]3(C)OC(=O)CCCCCCl)[C@@]2(C)CCC(=O)C=C12 (some centres unmarked),6.4,−114,−84,[13] %,−29,−12,,
CC1=CC2C(CC[C@@]3(C)C2CCC(=O)[C@@]3(C)OC(=O)CCCCCF)[C@@]2(C)CCC(=O)C=C12 (some centres unmarked),3.4,−109,−88,[21] %,−37,−28,,
C[C@]12CCC3C4CCC(=O)C=C4C=CC3C1CC1(CCCCC1)C2=O (some centres unmarked),36,0,0,[32] %,−20,4,,
CC1=CC2C(CC[C@@]3(C)C2CCC(=O)[C@@]3(C)OC(=O)CCCCCBr)[C@@]2(C)CCC(=O)C=C12 (some centres unmarked),4,−108,−48,[63] %,−25,−25,40,
CC(=O)[C@@]1(OC(=O)CCCCCl)CC[C@H]2[C@@H]3C=C(C)C4=CC(=O)CC[C@]4(C)[C@H]3CC[C@@]21C,,,,,,,,"IC50 [1, 11]: 3 nM; Antiandrogenic Activity Shionogi, DHT ([2]; DHT, E^−6): −146; Antiandrogenic Activity Shionogi, DHT ([2]; DHT, E^−7): −123; IC50 [2, 12]: 9.3 nM; ZR-75-1 Activity, E2 (ZR-75-1 cells [5]): −62; Oral Bioavailability AUC 0-7h [6]: 10 ± 2.5 ng·h/mL; Androgenic Activity Shionogi, Basal ([4]; E^−6): −15; Androgenic Activity Shionogi, Basal ([4]; E^−7): −24; ZR-75-1 Activity, Basal (ZR-75-1 cells [7]; E^−6): −10; ZR-75-1 Activity, Basal (ZR-75-1 cells [7]; E^−8): 0; Inhibition Type 2 17β-HSD Activity [% Inh.] [8]: [13] %"
CCC(=O)O[C@]1(C)C(=O)CCC2C3C=C(C)C4=CC(=O)CC[C@]4(C)C3CC[C@@]21C (some centres unmarked),11,−105,−88,[38] %,−21,−25,15,
CCCCCC(=O)O[C@]1(C)C(=O)CCC2C3C=C(C)C4=CC(=O)CC[C@]4(C)C3CC[C@@]21C (some centres unmarked),3,−109,−80,[66] %,−31,−29,30,
CC1=CC2C(CC[C@@]3(C)C2CCC(=O)[C@@]3(C)OC(=O)Cc2ccccc2)[C@@]2(C)CCC(=O)C=C12 (some centres unmarked),14.6,−100,−13,[56] %,−17,0,,ZR-75-1 Activity E2 3E^−8 (ZR-75-1 cells [5]): −34; ZR-75-1 Activity E2 E^−6 (ZR-75-1 cells [5]): −4; ZR-75-1 Activity Basal E^−6 (ZR-75-1 cells [7]; E^−6): 0; ZR-75-1 Activity Basal E^−8 (ZR-75-1 cells [7]; E^−8): 0
CC(=O)[C@@]1(OC(=O)CCCCBr)CCC2C3C=C(C)C4=CC(=O)CC[C@]4(C)C3CC[C@@]21C (some centres unmarked),,,,,,,,"IC50 [1, 11]: 4.6 nM; Antiandrogenic Activity Shionogi, DHT ([2]; DHT, E^−6): −121; Antiandrogenic Activity Shionogi, DHT ([2]; DHT, E^−7): −70; IC50 [2, 12]: 33 nM; ZR-75-1 Activity, E2 (ZR-75-1 cells [5]): 0; Oral Bioavailability AUC 0-7h [6]: 4.1 ± 1.4 ng·h/mL; Androgenic Activity Shionogi, Basal ([4]; E^−6): −54; Androgenic Activity Shionogi, Basal ([4]; E^−7): −17; ZR-75-1 Activity, Basal (ZR-75-1 cells [7]; E^−6): 196; ZR-75-1 Activity, Basal (ZR-75-1 cells [7]; E^−8): 197; Inhibition Type 2 17β-HSD Activity [% Inh.] [8]: [28] %"
CC(=O)O[C@]1(C)C(=O)CCC2C3C=C(C)C4=CC(=O)CC[C@]4(C)C3CC[C@@]21C (some centres unmarked),38.5,−128,−84,[13] %,−33,−27,82,ZR-75-1 Activity E2 3E^−8 (ZR-75-1 cells [5]): −23; ZR-75-1 Activity E2 E^−6 (ZR-75-1 cells [5]): −4; ZR-75-1 Activity Basal E^−6 (ZR-75-1 cells [7]; E^−6): −12; ZR-75-1 Activity Basal E^−8 (ZR-75-1 cells [7]; E^−8): −10
CC1=CC2C(CC[C@@]3(C)C2CCC(=O)[C@@]3(C)OC(=O)CCCCCl)[C@@]2(C)CCC(=O)C=C12 (some centres unmarked),2.6,−110,−99,[24] %,−36,−29,,
C[C@H]1CC(=O)C=C2C=CC3C(CC[C@]4(C)C(=O)C5(CCCC5)CC34)[C@]21C (some centres unmarked),35,−34,0,[32] %,−24,0,,
C[C@]12CCC(=O)C=C1C=CC1C2CC[C@]2(C)C(=O)C3(CCCCC3)CC12 (some centres unmarked),66,24,0,[27] %,48,22,,ZR-75-1 Activity E2 3E^−8 (ZR-75-1 cells [5]): 0; ZR-75-1 Activity E2 E^−6 (ZR-75-1 cells [5]): 0; ZR-75-1 Activity Basal E^−6 (ZR-75-1 cells [7]; E^−6): 0; ZR-75-1 Activity Basal E^−8 (ZR-75-1 cells [7]; E^−8): 0
CCCCC(=O)O[C@]1(C)C(=O)CC[C@H]2[C@@H]3C=C(C)C4=CC(=O)CC[C@]4(C)[C@H]3CC[C@@]21C,8.9,−104,−92,[70] %,−14,−28,19,
CC(=O)[C@@]1(OC(=O)CCCCCCl)CCC2C3C=C(C)C4=CC(=O)CC[C@]4(C)C3CC[C@@]21C (some centres unmarked),,,,,,,,"IC50 [1, 11]: 5.3 nM; Antiandrogenic Activity Shionogi, DHT ([2]; DHT, E^−6): −111; Antiandrogenic Activity Shionogi, DHT ([2]; DHT, E^−7): −82; IC50 [2, 12]: 61 nM; ZR-75-1 Activity, E2 (ZR-75-1 cells [5]): 0; Oral Bioavailability AUC 0-7h [6]: 4 ± 1.3 ng·h/mL; Androgenic Activity Shionogi, Basal ([4]; E^−6): −30; Androgenic Activity Shionogi, Basal ([4]; E^−7): −6; ZR-75-1 Activity, Basal (ZR-75-1 cells [7]; E^−6): 182; ZR-75-1 Activity, Basal (ZR-75-1 cells [7]; E^−8): 98; Inhibition Type 2 17β-HSD Activity [% Inh.] [8]: [14] %"
